According to paper PMC11921695 (BMC Cancer, 2025):
Where two headings read alike, the source gives them in different places.

Type: in vivo
Settings: selumetinib starting dose 75 mg bd; for Antiretroviral drug Concentration: trough plasma, individual patients

Maraviroc
% Change in antiretroviral drug concentration (Cycle 1 Day 15 vs Cycle 1 Day 1): 297.8%
% Change in antiretroviral drug concentration (Cycle 5 Day 1 vs Cycle 1 Day 1): 241.3%
Antiretroviral drug Concentration (Cycle 1 Day 1 (pre-selumetinib)): 46 ng/mL
Antiretroviral drug Concentration (Cycle 1 Day 15): 183 ng/mL
Antiretroviral drug Concentration (Cycle 5 Day 1): 157 ng/mL
